These are literature values, as cited in US11364242B2, “Treatment agents for inhibiting HIV and cancer in HIV infected patients” (UNIVERSITY OF MARYLAND, BALTIMORE, priority 2015, dated 2022).

The structures appear in SMILES notation.

This data set deals with 220 other kinases. To be noted: cited from earlier work.

Regarding `CNC(=O)c1cccc(-c2ccc3c(N4CCOC[C@@H]4C)nc(N4CCOC[C@@H]4C)nc3n2)c1` [AZD2014, 3-[2,4-bis[(3S)-3-methylmorpholin-4-yl]pyrido[2,3-d]pyrimidin-7-yl]-N-methylbenzamide], the “selectivity against other kinases” value was “inactive”.
